Laboratory results taken from patent US20230357233A1, “HETEROARYL COMPOUNDS, PREPARATION METHODS AND USES THEREOF” (INVENTISBIO CO., LTD., priority 2020, published 2023).

By UniProt entry, the sequences of proteins in these tests, tags left out.
UniProt P01116, whole entry G12D: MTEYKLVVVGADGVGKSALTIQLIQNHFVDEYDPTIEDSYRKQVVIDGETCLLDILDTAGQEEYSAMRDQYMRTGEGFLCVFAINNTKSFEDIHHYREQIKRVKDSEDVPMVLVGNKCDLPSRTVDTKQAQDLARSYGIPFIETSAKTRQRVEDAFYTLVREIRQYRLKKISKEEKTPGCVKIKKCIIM

Molecular target: Ba/F3_KRAS^G12D cells (Homo sapiens, UniProt P01116, G12D, cells depend on it)
Test: Ba/F3 KRAS^G12D cell proliferation assay (cell-titer Glo)
[1] = read-out: BaF3_KRAS^G12D IC50, cell growth inhibition, treated with the compounds for 3 days, tested form: TFA salt (3 eq)

SMILES | GI50 (read-out: BaF3_KRAS^G12D IC50, cell growth inhibition, treated with the compounds for 3 days) | GI50 [1]
CC#Cc1c(F)ccc2cc(O)cc(-c3nc(C)c4c(N5CC6CCC(C5)N6)nc(OC[C@@]56CCCN5C[C@H](F)C6)nc4c3F)c12 | – | < 500 nM
C#Cc1c(F)ccc2cc(O)cc(-c3nc(OC(C)C)c4c(N5CC6CCC(C5)N6)cc(C(=O)N[C@H](C)CN(C)C)nc4c3F)c12 | – | < 500 nM
CCOc1c(F)ccc2cc(O)cc(-c3nc(O)c4c(N5CC6CCC(C5)N6)nc(OC[C@@]56CCCN5C[C@H](F)C6)nc4c3F)c12 | – | 500 to 5000 nM

The next lines start with the values.

GI50 (read-out: BaF3_KRAS^G12D IC50, cell growth inhibition, treated with the compounds for 3 days) | GI50 [1] | SMILES
500 to 5000 nM | – | C#Cc1c(F)ccc2cc(O)cc(-c3nc(OCCC4CC4)c4c(N5CC6CCC(C5)N6)ncnc4c3F)c12
– | < 500 nM | C#Cc1c(F)ccc2cc(O)cc(-c3nc(OC(F)F)c4c(N5CC6CCC(C5)N6)nc(OC[C@@]56CCCN5C[C@H](F)C6)nc4c3F)c12

Read-outs that look alike come from different tables or passages of the source.
